# Like-named read-outs stand apart in the source and are kept apart here.
# Tested on: subjects with metastatic or surgically unresectable urothelial cancer
structure (smiles),measurement,setting,value
"COc1cc(OC)cc(N(CCNC(C)C)c2ccc3ncc(-c4cnn(C)c4)nc3c2)c1 [erdafitinib, N-(3,5-dimethoxy-phenyl)-N′-(1-methylethyl)-N-[3-(1-methyl-1H-pyrazol-4-yl)quinoxalin-6-yl]ethane-1,2-diamine]",Serious treatment-emergent: Musculoskeletal and connective tissue disorders,"6 mg continuous, n = 78",4 (5) no. (%)
same,Serious treatment-emergent: Musculoskeletal and connective tissue disorders,"8 mg continuous, n = 99",0 no. (%)
same,Serious treatment-emergent: Musculoskeletal and connective tissue disorders,"10 mg intermittent, n = 33",2 (6) no. (%)

# From patent publication US12691112B2, “FGFR tyrosine kinase inhibitors for the treatment of urothelial carcinoma” (Janssen Pharmaceutica NV, priority 2019, dated 2026)
